Data reported in US20190321291A1, “3D Printing and Drug Delivery” (Biogelx Limited, priority 2016, published 2019).

Test: Drug release assay from Fmoc-FF/S hydrogel into PBS release buffer, HPLC analysis
Format: physicochemical
Details: for Concentration (ug/mL) Gel: Fmoc-FF/S gel
Procedure: An 1100 Series high-performance liquid chromatography pump (Agilent, USA) was used for the analysis which was performed using acetonitrile with 0.1% TFA and water with 0.1% TFA. […] This concentration was kept constant until 16 mins; after that the gradient was decreased, reaching 40% (v/v) acetonitrile in water at 19 mins. The data was then processed manually using the software ‘Agilent Chemstation.’
The triplicate samples of release buffer were analysed by HPLC, and for the peaks corresponding to each model drug compound the peak area was measured. The average peak area was recorded, and using a standard curve prepared for each compound the concentration of each was determined.
At each of the specified time points the release buffer remaining in the wells was transferred to HPLC vials and stored at 4° C. until HPLC analysis was performed.
An 1100 Series high-performance liquid chromatography pump (Agilent, USA) was used for the analysis which was performed using acetonitrile with 0.1% TFA and water with 0.1% TFA. […] This concentration was kept constant until 16 mins when the gradient was decreased to 40% (v/v) acetonitrile in water at 19 mins. The data was then processed manually using the software ‘Agilent Chemstation.’
The triplicate samples of release buffer were analysed by HPLC, and for the peaks corresponding to each model drug compound the peak area was measured. The average peak area was recorded, and using standard curve prepared for each compound the concentration of each was determined.

Compound: C=C[C@H]1C[N@]2CC[C@H]1C[C@@H]2[C@@H](O)c1ccnc2ccc(OC)cc12 [Quinidine]
- Concentration (ug/mL) Control (30 min, 2 mM control solution of drug in PBS, release buffer PBS 37° C.): 7.26 µg/mL
- Concentration (ug/mL) Gel (6 h): 3.32 µg/mL
- Concentration (ug/mL) Gel (9 h): 2.25 µg/mL
